Laboratory results reported in patent US7893199B2, “Peptides having neutrophil-stimulating activity” (National University Corporation Gunma University, priority 2006, dated 2011).
Where two headings read alike, the source gives them in different places.

System: HL-60 cells differentiated into the neutrophil-like cells
Assay: β-hexosaminidase-secreting activity of neutrophil-like differentiated HL-60 cells
Type: cell-based, human
Conditions: for Activity (β-hexosaminidase-secreting activity class): lowest concentration class at which secretion was confirmed
Excerpt: (1) Culture of Cell and Differentiation Into Neutrophil-like Cell
In this time, the cells were subcultured at a cell density of 1.0×10^5 cells/ml to 1.5×10^6 cells/ml, the number of cells was counted using a microscope, and the state of the cells was also confirmed.
The HL-60 cells were differentiated into neutrophil-like cells by setting the cell density in the flask to about 1.0×10^6 cells/ml, adding dibutylyl-cAMP (db-cAMP) as a differentiation-inducing agent so as to have a final concentration of 500 μM, and incubating the cells in the presence of CO2 at 37° C. for 3 days.
(2) Stimulation of Cell and Measurement of β-Hexosaminidase-secreting Activity
The cells were collected by centrifuging the suspension of the differentiated HL-60 cells (1,000 rpm, 5 minutes, 4° C.). After that, the following operation was repeated three times to wash the cells: Hepes buffered Hank's solution (HBHS) containing ice-cooled 0.1% BSA (1.2 mM CaCl2.2H2O, 5.4 mM KCl, 0.44 mM KH2PO4, 0.49 mM MgCl2.6H2O, 0.41 mM MgSO4.7H2O, 136.9 mM NaCl, 0.34 mM Na2HPO4, 10 mM Hepes, 4.2 mM NaHCO3, 5.5 mM D-glucose, pH 7.4) was added to the cells; the mixture was suspended by inversion; and the mixture was centrifuged again (1,000 rpm, 5 minutes, 4° C.). Subsequently, HBHS was added so that the mixture has a cell density of 5.6×10^6 cells/ml and suspended. Then, DNase I and cytochalasin B were each added so as to have a final concentration of 5 μg/ml, and the cell suspension was dispensed in an amount of 90 μl (5×10^5 cells) on ice. […] After the cell stimulation for 10 minutes, 100 μl of an ice-cooled stop solution (25 mM Tris, 123 mM NaCl, 2.7 mM KCl, pH 7.4) were added, and immediately, the mixture was centrifuged (5,000 rpm, 1 minute, 4° C.). 200 μl of the obtained supernatant were transferred to a new tube.
The amount of β-hexosaminidase released in the supernatant of the reaction solution was measured by an enzyme reaction using p-nitrophenyl-N-acetyl-μ-D-glucosaminide as a substrate (Non-patent Document 12). That is, the supernatant of the reaction solution was dispensed in an amount of 90 μl to a 96-well plate. 60 μl of a substrate solution (10 mM p-nitrophenyl-N-acetyl-μ-D-glucosaminide, 40 mM citrate, 70 mM Na2HPO4, pH 4.5) were added to each well, followed by incubation at 37° C. for 1 hour. After the reaction, 100 μl of a stop solution (0.4 M glycine, pH 10.7) were added to each well and a color of the released p-nitrophenol was developed. The color development was measured with a plate reader at adsorption at 405 nm (reference: 492 nm). The all amount of β-hexosaminidase contained in the cells was quantified by treating the cells with Triton X-100 having a final concentration of 0.05%. In addition, the amount of β-hexosaminidase secreted by stimulation of 10 μM fMLP was also measured, and the ratio of the secretion amount by stimulation with each peptide to the above sectretion amount by stimulation with fMLP.

[1] = neutrophil-like differentiated HL-60 cells, Table 1, read-out: EC50 (μM), β-hexosaminidase-secreting activity
[2] = neutrophil-like differentiated HL-60 cells

| EC50 (differentiated HL-60 cells, read-out: EC50, β-hexosaminidase-secreting activity) [µM] | EC50 [1] [µM] | Compound | Activity (β-hexosaminidase-secreting activity class) [2] |
| --- | --- | --- | --- |
| 0.12 | – | CC[C@H](C)[C@H](NC(=O)[C@H](CO)NC(=O)[C@H](CCCNC(=N)N)NC(=O)[C@H](CC(C)C)NC(=O)[C@@H](NC(=O)[C@H](CCCNC(=N)N)NC(=O)[C@H](CS)NC(=O)[C@H](CS)NC(=O)[C@H](CCCNC(=N)N)NC(=O)CNC(=O)[C@H](Cc1ccccc1)NC(=O)CNC(=O)[C@H](C)NC(=O)[C@H](C)NC(=O)[C@@H](N)CCSC)C(C)C)C(=O)N[C@@H](CO)C(=O)N[C@@H](CCCNC(=N)N)C(=O)N[C@@H](Cc1ccccc1)C(=O)N[C@@H](Cc1c[nH]cn1)C(=O)N[C@@H](Cc1c[nH]c2ccccc12)C(=O)N[C@@H](CCCNC(=N)N)C(=O)N[C@@H](CO)C(=O)N[C@@H](CCC(N)=O)C(=O)N[C@@H](Cc1c[nH]cn1)C(=O)N[C@H](C(=O)O)[C@@H](C)O [No. 051] | – |
| – | 18 | CSCC[C@H](N)C(=O)N[C@@H](C)C(=O)N[C@@H](CC(C)C)C(=O)N1CCC[C@H]1C(=O)N[C@@H](CC(C)C)C(=O)N[C@@H](CCCNC(=N)N)C(=O)N1CCC[C@H]1C(=O)N[C@@H](CC(C)C)C(=O)N[C@H](C(=O)N[C@@H](CCCNC(=N)N)C(=O)NCC(=O)N[C@@H](CC(C)C)C(=O)N[C@@H](C)C(=O)N[C@@H](CO)C(=O)N[C@@H](C)C(=O)N[C@@H](C)C(=O)N[C@@H](CCCCN)C(=O)NCC(=O)NCC(=O)N[C@@H](Cc1c[nH]cn1)C(=O)NCC(=O)NCC(=O)N[C@@H](C)C(=O)O)[C@@H](C)O [compound 014] | ● (a peptide in which the β-hexosaminidase-secreting activity was confirmed at a concentration of 10 μM or less) |
| – | 0.3 | CC[C@H](C)[C@H](NC(=O)[C@H](CO)NC(=O)[C@H](CCCNC(=N)N)NC(=O)[C@H](CC(C)C)NC(=O)[C@@H](NC(=O)[C@H](CCCNC(=N)N)NC(=O)[C@H](CS)NC(=O)[C@H](CS)NC(=O)[C@H](CCCNC(=N)N)NC(=O)CNC(=O)[C@H](Cc1ccccc1)NC(=O)CNC(=O)[C@H](C)NC(=O)[C@H](C)NC(=O)[C@@H](N)CCSC)C(C)C)C(=O)N[C@@H](CO)C(=O)N[C@@H](CCCNC(=N)N)C(=O)N[C@@H](Cc1ccccc1)C(=O)N[C@@H](Cc1c[nH]cn1)C(=O)N[C@@H](Cc1c[nH]c2ccccc12)C(=O)N[C@@H](CCCNC(=N)N)C(=O)N[C@@H](CO)C(=O)N[C@@H](CCC(N)=O)C(=O)N[C@@H](Cc1c[nH]cn1)C(=O)N[C@H](C(=O)O)[C@@H](C)O [compound 051] | ⊚ (a peptide in which the β-hexosaminidase-secreting activity was confirmed at a concentration of 300 nM or less) |
| – | 1.3 | CC[C@H](C)[C@H](NC(=O)[C@H](Cc1c[nH]c2ccccc12)NC(=O)[C@H](CCC(N)=O)NC(=O)[C@@H]1CCCN1C(=O)[C@H](CCC(N)=O)NC(=O)[C@H](CC(C)C)NC(=O)[C@@H](NC(=O)[C@H](Cc1c[nH]c2ccccc12)NC(=O)[C@H](C)NC(=O)[C@H](CO)NC(=O)[C@H](CC(C)C)NC(=O)CNC(=O)[C@H](C)NC(=O)[C@@H](NC(=O)CNC(=O)[C@H](C)NC(=O)[C@H](CCCNC(=N)N)NC(=O)[C@H](CO)NC(=O)[C@H](Cc1ccccc1)NC(=O)[C@@H](N)CCSC)C(C)C)[C@@H](C)O)C(=O)N[C@@H](CCC(N)=O)C(=O)N[C@H](C(=O)N[C@@H](CCCNC(=N)N)C(=O)N[C@@H](CC(N)=O)C(=O)N[C@@H](CCSC)C(=O)O)C(C)C [compound 043] | ∘ (a peptide in which the β-hexosaminidase-secreting activity was confirmed at a concentration of 1 μM or less) |
